Drawing on patent US20100184790A1, “PYRROLO[2,3-B]PYRIDINE COMPOUNDS, AZAINDOLE COMPOUNDS USED FOR SYNTHESIZING SAID PYRROLO[2,3-B]PYRIDINE COMPOUNDS, METHODS FOR THE PRODUCTION THEREOF, AND USES THEREOF” (CENTRE NATIONAL DE LA RECHERCHE SCIENTIFIQUE, priority 2007, published 2010), this text covers IC50 for one compound.

Each structure is given as a SMILES string.

The target of assay [1] is T1, CDK2/cyclin A (Homo sapiens, UniProt P24941).
T1 construct: made in house; host or cells: insect cells
The assay is described as follows: CDK2/cyclin A kinase assay. In kind it is biochemical. The settings on record: 15 μM ATP, 30° C., histone H1; read-out: IC50 CDK2/cyclinA.

Assay [2] deals with DYRK1A (Rattus norvegicus, UniProt Q63470). Nature of the assay: DYRK1A kinase assay (myelin basic protein). Format: biochemical. The settings on record: 15 μM ATP, 30° C.
For assay [3], the system named is SH-SY5Y cells. Nature of the assay: Cell survival, MTS reduction, SH-SY5Y. The following applies: Homo sapiens, Table 2, exposed for 24 hours. Format: cell-based. As to the method: The human neuroblastoma cell line SH-SY5Y was grown in a DMEM medium with L-glutamine originating from Invitrogen (Cergy Pontoise, France), antibiotics and 10% by volume of FCS originating from Invitrogen. […] The procedure was such as described in detail in Ribas J. et al., 2004, “Cell differentiation, caspase inhibition, and macromolecular synthesis blockage, but not BCL-2 or BCL-XL proteins, protect SH-SYS5 cells from apoptosis triggered by two CDK inhibitory drugs”, Exp. […] These compounds were also tested at various concentrations with regard to their effects on SH-SY5Y and HEK293 cells. […] The IC50 values were calculated from the dose-response curves and are given in micromoles (mean±standard deviation of two independent measurements carried out in triplicate). […] The survival of the cells was estimated by the assaying of the degree of reduction of MTS induced by this exposure. […] The ICS© values were calculated from dose-response curves and are given in micromoles in table 3 below.
In general terms: Tetrazolium dyes change colour on reduction, which living cells bring about.

As for `CC(C)Oc1ccnc2[nH]cc(-c3ccnc(N)n3)c12` [Meriolin 6, 3-[(2-amino)pyrimidin-4-yl]-4-(1-methylethoxy)-1H-pyrrolo[2,3-b]pyridine], the figures for the IC50 in assay [1], in assay [2] and in assay [3] were 51 nM, 40 nM and 38 nM, respectively.
